# From publication PMC6540285, “Evaluation of Protein Kinase Inhibitors with PLK4 Cross-Over Potential in a Pre-Clinical Model of Cancer” (International Journal of Molecular Sciences, 2019)
# Sequences of proteins named here, by UniProt entry; tags and fusion partners are left off. A change or cut given only in a name is not applied to a line headed by its entry.
# UniProt O00329: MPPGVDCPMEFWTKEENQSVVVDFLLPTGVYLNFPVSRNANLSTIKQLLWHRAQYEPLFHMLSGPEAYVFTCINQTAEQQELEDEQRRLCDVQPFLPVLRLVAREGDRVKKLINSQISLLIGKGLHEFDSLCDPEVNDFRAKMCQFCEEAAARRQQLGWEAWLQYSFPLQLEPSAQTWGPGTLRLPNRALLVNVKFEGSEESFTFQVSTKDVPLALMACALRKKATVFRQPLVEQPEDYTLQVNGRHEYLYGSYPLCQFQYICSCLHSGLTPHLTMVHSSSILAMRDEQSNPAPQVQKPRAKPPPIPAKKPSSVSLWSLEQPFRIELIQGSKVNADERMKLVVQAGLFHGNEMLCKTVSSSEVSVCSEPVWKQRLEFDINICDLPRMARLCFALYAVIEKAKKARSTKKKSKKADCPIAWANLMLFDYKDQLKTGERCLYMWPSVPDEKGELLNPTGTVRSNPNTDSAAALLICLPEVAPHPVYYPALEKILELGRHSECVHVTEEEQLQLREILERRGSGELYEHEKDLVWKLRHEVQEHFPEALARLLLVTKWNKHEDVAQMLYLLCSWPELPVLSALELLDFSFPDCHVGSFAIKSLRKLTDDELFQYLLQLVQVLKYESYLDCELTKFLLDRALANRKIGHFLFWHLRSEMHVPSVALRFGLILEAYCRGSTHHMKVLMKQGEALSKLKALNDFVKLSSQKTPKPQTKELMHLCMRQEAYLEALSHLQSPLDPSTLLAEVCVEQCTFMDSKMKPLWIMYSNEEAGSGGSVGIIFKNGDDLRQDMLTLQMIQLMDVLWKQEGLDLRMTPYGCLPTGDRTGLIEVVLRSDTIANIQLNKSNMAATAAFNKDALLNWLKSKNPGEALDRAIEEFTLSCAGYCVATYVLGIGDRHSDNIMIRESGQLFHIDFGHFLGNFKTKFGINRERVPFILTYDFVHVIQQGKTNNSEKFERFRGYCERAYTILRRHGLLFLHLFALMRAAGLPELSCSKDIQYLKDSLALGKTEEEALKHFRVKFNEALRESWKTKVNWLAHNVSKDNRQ
# UniProt Q00535, whole entry: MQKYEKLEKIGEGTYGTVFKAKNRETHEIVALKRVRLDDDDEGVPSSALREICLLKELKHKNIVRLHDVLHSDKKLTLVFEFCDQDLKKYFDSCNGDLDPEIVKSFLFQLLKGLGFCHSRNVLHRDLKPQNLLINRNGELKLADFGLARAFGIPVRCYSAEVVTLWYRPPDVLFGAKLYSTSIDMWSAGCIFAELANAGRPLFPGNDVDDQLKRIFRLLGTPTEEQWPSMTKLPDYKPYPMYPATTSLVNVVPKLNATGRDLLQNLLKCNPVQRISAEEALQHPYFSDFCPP
# UniProt P42338: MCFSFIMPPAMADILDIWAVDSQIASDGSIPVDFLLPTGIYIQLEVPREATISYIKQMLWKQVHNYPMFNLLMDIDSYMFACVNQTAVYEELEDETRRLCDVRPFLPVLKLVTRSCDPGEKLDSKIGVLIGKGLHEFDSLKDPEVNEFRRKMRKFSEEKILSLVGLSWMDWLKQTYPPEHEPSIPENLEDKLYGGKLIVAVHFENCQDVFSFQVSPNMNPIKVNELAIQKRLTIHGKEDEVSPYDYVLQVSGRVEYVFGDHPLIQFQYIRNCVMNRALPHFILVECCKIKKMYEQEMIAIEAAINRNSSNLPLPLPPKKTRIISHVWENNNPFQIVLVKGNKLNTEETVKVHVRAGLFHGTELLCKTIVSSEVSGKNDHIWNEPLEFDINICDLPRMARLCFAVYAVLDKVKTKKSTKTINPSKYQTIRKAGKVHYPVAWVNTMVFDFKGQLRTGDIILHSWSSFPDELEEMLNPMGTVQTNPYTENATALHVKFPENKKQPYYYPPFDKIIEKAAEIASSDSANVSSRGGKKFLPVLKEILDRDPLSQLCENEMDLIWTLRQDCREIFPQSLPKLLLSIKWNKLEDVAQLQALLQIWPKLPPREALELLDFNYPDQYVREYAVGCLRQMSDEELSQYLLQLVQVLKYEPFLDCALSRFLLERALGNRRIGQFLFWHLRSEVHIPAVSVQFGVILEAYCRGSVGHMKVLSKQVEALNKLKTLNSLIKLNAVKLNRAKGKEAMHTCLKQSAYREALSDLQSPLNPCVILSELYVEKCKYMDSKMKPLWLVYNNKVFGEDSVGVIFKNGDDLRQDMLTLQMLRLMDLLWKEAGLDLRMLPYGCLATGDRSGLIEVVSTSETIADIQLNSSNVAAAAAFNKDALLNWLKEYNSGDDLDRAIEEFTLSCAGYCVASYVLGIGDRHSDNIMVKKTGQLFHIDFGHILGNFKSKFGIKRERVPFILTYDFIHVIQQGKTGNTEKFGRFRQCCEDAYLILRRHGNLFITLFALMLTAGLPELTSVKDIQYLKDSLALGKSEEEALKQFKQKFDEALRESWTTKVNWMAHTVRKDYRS
# Legend:
# Conditions in all cases: read-out: % Inhibition Avg
# [1] = target: PIK3CD/PIK3R1 (p110 delta/p85 alpha) (Homo sapiens, UniProt O00329); assay: SelectScreen kinase profiling, Adapta
# CDK5 (Inactive) = CDK5 (Inactive) (Homo sapiens, UniProt Q00535); assay: SelectScreen kinase profiling, LanthaScreen binding
# [2] = target: PIK3CB/PIK3R1 (p110 beta/p85 alpha) (Homo sapiens, UniProt P42338); assay: SelectScreen kinase profiling, Adapta
# [3] = target: PIK3CB/PIK3R2 (p110 beta/p85 beta) (Homo sapiens, UniProt P42338); assay: SelectScreen kinase profiling, Adapta
compound,measurement,setting,value
O=C(c1ccc(/C=C/c2n[nH]c3ccccc23)cc1)N1CCNCC1 [KW-2449],inhibition at 10 µM,[1],20%
same,inhibition at 10 µM,CDK5 (Inactive),8%
same,inhibition at 10 µM,[2],-5%
same,inhibition at 10 µM,[3],-10%
